Measurements published in patent US9598418B2, “Substituted phthalazin-1 (2H)-one derivatives as selective inhibitors of poly (ADP-ribose) polymerase-1” (CADILA HEALTHCARE LIMITED, priority 2012, dated 2017).

Protein sequences, listed by entry. Tags and fused reporters are not part of them.
UniProt P09874, whole entry: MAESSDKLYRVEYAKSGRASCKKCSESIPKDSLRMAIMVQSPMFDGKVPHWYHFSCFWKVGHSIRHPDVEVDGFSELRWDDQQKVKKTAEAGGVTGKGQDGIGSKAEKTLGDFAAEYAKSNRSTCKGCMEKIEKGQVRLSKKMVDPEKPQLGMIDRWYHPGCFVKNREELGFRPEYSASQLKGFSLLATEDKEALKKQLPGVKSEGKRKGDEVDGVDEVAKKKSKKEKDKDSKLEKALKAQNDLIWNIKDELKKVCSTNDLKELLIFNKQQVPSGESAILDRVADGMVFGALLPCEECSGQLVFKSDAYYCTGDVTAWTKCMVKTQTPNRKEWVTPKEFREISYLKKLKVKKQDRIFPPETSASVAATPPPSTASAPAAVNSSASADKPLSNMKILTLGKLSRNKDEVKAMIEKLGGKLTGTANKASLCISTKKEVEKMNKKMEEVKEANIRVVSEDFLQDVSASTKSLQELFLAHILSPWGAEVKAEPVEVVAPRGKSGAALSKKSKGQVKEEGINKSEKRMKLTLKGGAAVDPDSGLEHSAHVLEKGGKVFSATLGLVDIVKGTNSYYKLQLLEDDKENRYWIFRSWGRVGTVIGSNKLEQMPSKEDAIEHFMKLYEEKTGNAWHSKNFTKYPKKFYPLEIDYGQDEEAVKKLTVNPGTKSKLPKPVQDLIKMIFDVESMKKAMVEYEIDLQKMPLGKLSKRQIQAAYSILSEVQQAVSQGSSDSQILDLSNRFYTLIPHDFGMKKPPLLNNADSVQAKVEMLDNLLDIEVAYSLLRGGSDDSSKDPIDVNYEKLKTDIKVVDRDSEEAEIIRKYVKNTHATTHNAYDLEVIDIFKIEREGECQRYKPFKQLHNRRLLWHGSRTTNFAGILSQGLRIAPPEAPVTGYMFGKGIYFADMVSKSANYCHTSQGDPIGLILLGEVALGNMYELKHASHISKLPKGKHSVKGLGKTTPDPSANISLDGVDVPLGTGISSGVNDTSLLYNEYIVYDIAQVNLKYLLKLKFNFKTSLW

Molecular target: PARP-1 (Homo sapiens, UniProt P09874)
Assay: PARP-1 inhibitory activity, HT universal colorimetric PARP assay kit (Trevigen)
Settings: read-out: PARP-1 activity in vitro IC50; estimation as calculated from a 4 point dose response curve

SMILES | IC50
CS(=O)(=O)n1ncc2c1CN(C(=O)c1cc(Cc3n[nH]c(=O)c4ccccc34)ccc1F)C2 | 30.3 nM
O=C(c1cc(Cc2n[nH]c(=O)c3ccccc23)ccc1F)N1C[C@H]2CN3CCCC3[C@H]2C1 (some centres unmarked) | 11.7 nM
